The values that follow come from BindingDB's records for doi:10.3109/14756366.2010.491794 (Nanchang University School of Pharmaceutical Science, 2011).

Protein sequences, listed by entry. Tags and fused reporters are not part of them.
UniProt Q99NU1, whole entry: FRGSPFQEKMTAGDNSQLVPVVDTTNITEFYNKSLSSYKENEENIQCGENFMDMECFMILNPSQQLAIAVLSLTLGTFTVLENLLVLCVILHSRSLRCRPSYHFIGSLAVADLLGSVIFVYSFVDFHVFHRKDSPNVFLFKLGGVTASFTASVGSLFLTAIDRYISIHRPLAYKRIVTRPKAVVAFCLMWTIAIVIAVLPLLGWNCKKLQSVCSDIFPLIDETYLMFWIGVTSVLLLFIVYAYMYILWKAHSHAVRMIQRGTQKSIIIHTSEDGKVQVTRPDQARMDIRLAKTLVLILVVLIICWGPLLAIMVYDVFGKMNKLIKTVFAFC

For the test, the target named is Cannabinoid receptor 1 (Cricetulus griseus, UniProt Q99NU1). Description: CB1 Receptor Binding Assay (In Vitro). Here is the method:
The target compounds were evaluated using a binding assay towards the CB1 receptor expressed on the membranes of Chinese hamster ovarian (CHO) cells. Rimonabant was used as the positive control and DMSO was used as the blank control. The potent synthetic cannabinoid agonist, [3H]-CP55940, was used as a radioligand (Figure 1). The CHO cells were incubated in 96-well microtiter plates. Various concentrations of the synthesised cannabinoid ligands were added and incubated for 10 min at 37°C. Then the [3H]-CP55940 was added at a final concentration of 1.7 nM and incubated for another 30 min at 37°C. The cells were lysed and scintillation fluid was added. The radioactivity was quantitated by liquid scintillation spectrometry [Menozzi et al., Eur. J. Med. Chem., 43:2627-2638]. There were three parallels in the tests.

In the case of `Cc1c(C(=O)NN2CCCCC2)nn(-c2ccc(Cl)cc2Cl)c1-c1ccc(Cl)cc1` [SR141716], the IC50 amounted to 4.72 nM.

The IC50 is the midpoint of a concentration-inhibition curve.
